A short description of series [1]: in vitro. As to conditions: mouse, liver microsomes.
A short description of series [2]: in vitro. The following applies: human, liver microsomes. A general note: Liver microsomes are vesicles of endoplasmic reticulum, rich in cytochrome P450 enzymes.

The microsomal CLint is the rate of metabolic loss divided by the concentration. A low value points to greater metabolic stability.

Take `CCOc1ccccc1N1CCN(CCCc2c[nH]c3ccc(F)cc23)CC1`: the results for the microsomal CLint at 1 µM in series [1] and in series [2] were 84.3 µL/min/mg and 32.4 µL/min/mg, respectively.
Taken in the same sequence, the figures for `COc1ccccc1N1CCN(CCCc2c[nH]c3ccc(F)cc23)CC1` were 152 µL/min/mg and 37.7 µL/min/mg.
Taken in the same sequence, the figures for `CSc1ccccc1N1CCN(CCCc2c[nH]c3ccc(F)cc23)CC1` were 79.7 µL/min/mg and 26 µL/min/mg.
